# Data as given in ChEMBL document CHEMBL4808148, “HDAC6 screening dataset using tau-based substrate in an enzymatic assay yields selective inhibitors and activators” (2021).
# This is a selection; strong and weak results do not stand in their true shares.
# Molecular target: T1, Protein deacetylase HDAC6 (Homo sapiens) (UniProt Q9UBN7)
# T1 sequence (whole entry): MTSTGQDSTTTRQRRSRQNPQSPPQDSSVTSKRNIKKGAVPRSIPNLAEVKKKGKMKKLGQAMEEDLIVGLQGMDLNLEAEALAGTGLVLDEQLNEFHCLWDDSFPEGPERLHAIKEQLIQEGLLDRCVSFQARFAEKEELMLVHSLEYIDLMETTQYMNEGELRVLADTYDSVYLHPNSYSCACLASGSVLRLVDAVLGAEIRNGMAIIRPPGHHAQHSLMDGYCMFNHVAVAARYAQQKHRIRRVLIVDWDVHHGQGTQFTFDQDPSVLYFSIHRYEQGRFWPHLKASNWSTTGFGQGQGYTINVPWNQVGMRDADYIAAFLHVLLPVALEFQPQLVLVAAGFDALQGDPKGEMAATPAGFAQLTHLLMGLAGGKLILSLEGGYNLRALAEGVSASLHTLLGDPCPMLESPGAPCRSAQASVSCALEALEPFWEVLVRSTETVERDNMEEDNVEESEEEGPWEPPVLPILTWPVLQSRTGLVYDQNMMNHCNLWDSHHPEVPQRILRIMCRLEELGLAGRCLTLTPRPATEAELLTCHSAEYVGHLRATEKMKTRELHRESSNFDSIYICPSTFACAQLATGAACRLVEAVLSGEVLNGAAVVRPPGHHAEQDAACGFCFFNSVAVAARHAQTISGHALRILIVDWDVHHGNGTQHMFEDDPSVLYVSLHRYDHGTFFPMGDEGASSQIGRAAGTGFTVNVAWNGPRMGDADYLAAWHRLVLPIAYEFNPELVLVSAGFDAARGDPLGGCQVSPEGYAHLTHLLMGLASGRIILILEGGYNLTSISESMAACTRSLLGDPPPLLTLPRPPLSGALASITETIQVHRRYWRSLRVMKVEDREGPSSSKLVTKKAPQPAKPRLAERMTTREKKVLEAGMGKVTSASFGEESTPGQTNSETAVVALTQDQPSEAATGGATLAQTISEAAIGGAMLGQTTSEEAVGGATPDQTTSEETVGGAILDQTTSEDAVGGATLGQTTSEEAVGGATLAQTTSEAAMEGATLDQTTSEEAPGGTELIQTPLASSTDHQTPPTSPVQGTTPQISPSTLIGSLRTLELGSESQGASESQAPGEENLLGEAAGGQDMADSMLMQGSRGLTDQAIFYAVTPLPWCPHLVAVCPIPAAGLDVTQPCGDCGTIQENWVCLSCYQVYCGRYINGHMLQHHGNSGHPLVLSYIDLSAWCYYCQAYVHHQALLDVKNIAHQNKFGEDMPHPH
# Settings: at 10 µM
row,Structure (SMILES),inhibition [%]
1,O=C(OC1CN2CCC1CC2)c1ccccc1 (centres undefined),-0.28
2,O=P(O)(O)F,15.2
3,CN(C)[C@]1(c2ccccc2)CC[C@]2(CC1)OCCc1c3cc(F)ccc3[nH]c12,-7.28
4,CN(C(=O)Cc1ccc(Cl)c(Cl)c1)[C@H]1CCCC[C@@H]1N1CCCC1,23.9
